# Measured values taken from PubChem BioAssay AID759 (NMMLSC, 2007).
# Sequences of proteins named here, by UniProt entry; tags and fusion partners are left off.
# UniProt P01112, whole entry: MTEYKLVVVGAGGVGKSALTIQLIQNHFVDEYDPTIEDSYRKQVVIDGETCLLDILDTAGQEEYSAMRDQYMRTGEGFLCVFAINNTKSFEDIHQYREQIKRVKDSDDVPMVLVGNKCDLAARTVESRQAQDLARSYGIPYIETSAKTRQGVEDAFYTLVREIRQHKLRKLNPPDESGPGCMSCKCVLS
# The list shows a part of the results, in another mix than the full data. Calls of active or inactive are those of the source.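 The calls were made as follows: active = GTP binding activity at least 20% away from the 100% baseline, either lowered as inhibitor or raised as activator; inconclusive = flagged as likely green fluorescent, judged across all proteins in the well; inactive = the rest.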
# Target: GTPase HRas (Homo sapiens) (UniProt P01112)
# Test: HRas wt fluorescent GTP binding changes, either direction – biochemical, wildtype, bead-based flow cytometry, multiplex, primary screen (AID 759);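 also: 0% = unlabeled GTP competition control and 100% = no-compound control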
# Details: GST-Ras wt beads, Bodipy-FL-GTP binding, at 10 µM, actives lie on both sides
row,SMILES,GTP binding activity
1,Cc1c(NP(C)(=O)Oc2ccc(C(C)C)cc2)c(=O)n(-c2ccccc2)n1C (stereo not drawn),inactive: 102%
2,O=[N+]([O-])c1cc([N+](=O)[O-])c(Nc2ccccn2)c([N+](=O)[O-])c1,inactive: 97%
3,CCc1ccc(OP(C)(=O)O)cc1,inactive: 100%
4,CP(=O)(Nc1ccccn1)Oc1ccccc1 (stereo not drawn),inactive: 104%
5,COc1ccccc1OP(C)(=O)Nc1ccc(C)cc1C (stereo not drawn),inactive: 102%
6,CN(C)CCOC(=O)C(O)(c1ccccc1)C1CCCC1 (stereo not drawn),inactive: 98%
7,COc1ccc(OP(C)(=O)Nc2ccccn2)cc1 (stereo not drawn),inactive: 95%
8,Cc1nc2ccc3ccccc3c2o1.O=[N+]([O-])c1cc([N+](=O)[O-])c(O)c([N+](=O)[O-])c1,inactive: 103%
9,CP(=O)(Nc1ccc(Cl)cc1Cl)Oc1ccccc1 (stereo not drawn),inactive: 96%
10,CP(=O)(OCCOc1ccccc1)OCCOc1ccccc1,inactive: 97%
11,Cc1cc(C)cc(OP(C)(=O)Nc2cccc(C(F)(F)F)c2)c1 (stereo not drawn),inactive: 96%
12,COc1ccc(OP(C)(=O)Nc2ccccc2Br)cc1 (stereo not drawn),inactive: 101%
13,COc1ccccc1OP(C)(=O)Nc1ccc(C)c(C)c1 (stereo not drawn),inactive: 98%
14,CP(=O)(OC12CC3CC(CC(C3)C1)C2)OC12CC3CC(CC(C3)C1)C2,inactive: 101%
15,CCOC(=O)c1ccc(NP(C)(=O)Oc2ccc(Cl)cc2)cc1 (stereo not drawn),inactive: 97%
16,CP(=O)(Nc1ccc(Cl)cc1)Oc1ccc(F)cc1 (stereo not drawn),inactive: 101%
17,COc1ccccc1OP(C)(=O)Nc1ccccc1Br (stereo not drawn),inactive: 98%
18,CC(C)(C)c1ccc(OP(C)(=O)O)cc1,inactive: 108%
19,CN(C)C(=O)c1c([N+](=O)[O-])cc([N+](=O)[O-])cc1[N+](=O)[O-],inactive: 99%
20,CCN(CC)CC(O)COC(=O)C(O)(c1ccccc1)C1CCCCC1 (stereo not drawn),inactive: 104%
21,COc1ccc(OP(C)(=O)Nc2ccc(Br)cc2)cc1 (stereo not drawn),inactive: 99%
22,CP(=O)(Oc1ccccc1)N1CCOC1=O (stereo not drawn),inactive: 99%
23,CCc1ccc(OP(C)(=O)Nc2cccnc2)cc1 (stereo not drawn),inactive: 92%

row,SMILES,GTP binding activity
1,CP(=O)(Nc1ccc2c(c1)OCCO2)Oc1ccccc1 (stereo not drawn),inactive: 102%
2,Cc1ccccc1NP(C)(=O)Nc1ccccc1C,inactive: 100%
3,CCOP(C)(=S)SCC(=O)NC(C)(CC)C(=O)O (stereo not drawn),inactive: 97%
4,O=[N+]([O-])c1cc([N+](=O)[O-])c(NCC2CCS(=O)(=O)C2)c([N+](=O)[O-])c1 (stereo not drawn),inactive: 94%
5,COc1ccc(OP(C)(=O)Nc2cccc(Br)c2)cc1 (stereo not drawn),inactive: 103%
6,COc1ccc(NP(C)(=O)Oc2ccccc2OC)cc1 (stereo not drawn),inactive: 101%
7,CN(C)CCOC(=O)C(O)(c1ccccc1)C1CCCCC1 (stereo not drawn),inactive: 100%
8,CCN(CC)CCCOC(=O)C(O)(c1ccccc1)C1CCCCC1 (stereo not drawn),inactive: 99%
9,CP(=O)(Nc1ccccc1)Oc1ccc(F)cc1 (stereo not drawn),inactive: 103%
10,COc1ccc(OP(C)(=O)Nc2ccc(SC(F)(F)F)cc2)cc1 (stereo not drawn),inactive: 94%
11,CCOC(=O)c1ccc(NP(C)(=O)Oc2ccc(F)cc2)cc1 (stereo not drawn),inactive: 98%
12,O=C(OCCN1CCN(CCOCc2ccccc2)CC1)C(O)(c1ccccc1)c1ccccc1,inactive: 103%
13,CP(=O)(Nc1ccccc1F)Oc1ccccc1 (stereo not drawn),inactive: 96%
14,Cc1cc(C)cc(OP(C)(=O)Nc2ccccn2)c1 (stereo not drawn),inactive: 101%
15,CP(=O)(Nc1cccc(Br)c1)Oc1ccccc1 (stereo not drawn),inactive: 96%
16,Cc1ccc(C)c(NP(C)(=O)Oc2ccccc2)c1 (stereo not drawn),inactive: 100%
17,Cc1cc(C)cc(OP(C)(=O)Nc2ccc(C)cc2C)c1 (stereo not drawn),inactive: 102%
18,CCOC(=O)c1ccc(NP(C)(=O)Oc2cc(C)cc(C)c2)cc1 (stereo not drawn),inactive: 102%
19,CC1=NCCc2c1[nH]c1ccccc21.O=[N+]([O-])c1cc([N+](=O)[O-])c(O)c([N+](=O)[O-])c1,inactive: 91%
20,CN1CCCCC1COC(=O)C1(O)c2ccccc2CCc2ccccc21 (stereo not drawn),inactive: 102%
21,COc1ccccc1OP(C)(=O)Nc1c(C)cccc1C (stereo not drawn),inactive: 102%
22,CCCOc1ccc(NP(C)(=O)Oc2ccc(Cl)cc2)cc1 (stereo not drawn),inactive: 93%
23,CP(=O)(Nc1ccc(SC(F)(F)F)cc1)Oc1ccccc1 (stereo not drawn),inactive: 98%

row,SMILES,GTP binding activity
1,Cc1nc2ccc3ccccc3c2s1.O=[N+]([O-])c1cc([N+](=O)[O-])c(O)c([N+](=O)[O-])c1,inactive: 100%
2,O=[N+]([O-])c1cc([N+](=O)[O-])c(-n2nnc3ccccc32)c([N+](=O)[O-])c1,inactive: 95%
3,CCOP(C)(=S)SCC(=O)NC(C)C(=O)O (stereo not drawn),inactive: 105%
4,CCOC(=O)c1ccc(NP(C)(=O)Oc2ccc(OC)cc2)cc1 (stereo not drawn),inactive: 102%
5,CP(=O)(Nc1ccccn1)Oc1ccc(Cl)cc1 (stereo not drawn),inactive: 96%
6,Cc1cccc(C)c1OP(C)(=O)Nc1ccc(SC(F)(F)F)cc1 (stereo not drawn),inactive: 96%
7,CP(=O)(Oc1ccccc1)OC(c1ccccc1)C(F)(F)F (stereo not drawn),inactive: 98%
8,CP(=O)(NC(=O)Nc1ccccc1)Oc1ccccc1 (stereo not drawn),inactive: 99%
9,Cc1cc(C)cc(OP(C)(=O)Nc2ccc(SC(F)(F)F)cc2)c1 (stereo not drawn),inactive: 97%
10,CP(=S)(Nn1cnnc1)Oc1ccccc1 (stereo not drawn),inactive: 103%
11,COc1ccccc1OP(C)(=O)Nc1ccccc1 (stereo not drawn),inactive: 96%
12,CP(=O)(Nc1ccccc1Br)Oc1ccccc1 (stereo not drawn),inactive: 103%
13,CCOC(=O)c1ccc(NP(C)(=O)Oc2ccccc2)cc1 (stereo not drawn),inactive: 100%
14,COc1ccccc1OP(C)(=O)Nc1ccc(C)cc1 (stereo not drawn),inactive: 99%
15,Cc1ccc(NP(C)(=O)Oc2ccccc2)c(C)c1 (stereo not drawn),inactive: 99%
16,COc1ccccc1OP(C)(=O)Nc1cc(Cl)ccc1C (stereo not drawn),inactive: 98%
17,COc1ccc(OP(C)(=O)Nc2cccc(F)c2)cc1 (stereo not drawn),inactive: 100%
18,Cc1cc(C)cc(OP(C)(N)=O)c1 (stereo not drawn),inactive: 98%
19,CC(C)(C)c1ccc(OP(C)(=O)Nc2ccc(SC(F)(F)F)cc2)cc1 (stereo not drawn),inactive: 102%
20,Cc1cccc(C)c1OP(C)(N)=O (stereo not drawn),inactive: 99%
21,O=[N+]([O-])c1ccc2c(c1)C=Nc1ccccc1O2,inactive: 92%
22,CCN(CC)CCCOC(=O)C(O)(c1ccccc1)c1ccccc1,inactive: 102%
